{"source": "ChEMBL document CHEMBL1128717", "about": "“2,4-Diaminopyrido[3,2-d]pyrimidine inhibitors of dihydrofolate reductase from Pneumocystis carinii and Toxoplasma gondii” (J Med Chem, 1995)", "molecular_target": "T1, Dihydrofolate reductase (Rattus norvegicus, UniProt Q920D2)", "T1 sequence (Q920D2 whole entry)": "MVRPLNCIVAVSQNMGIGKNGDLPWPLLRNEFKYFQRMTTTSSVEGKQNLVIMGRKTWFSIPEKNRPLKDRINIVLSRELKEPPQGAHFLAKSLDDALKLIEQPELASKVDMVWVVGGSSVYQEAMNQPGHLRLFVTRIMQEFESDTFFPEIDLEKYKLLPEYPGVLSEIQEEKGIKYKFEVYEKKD", "data": [{"compound": "COc1cc(NCc2ccc3nc(N)nc(N)c3n2)cc(OC)c1OC", "values": [{"measurement": "IC50", "result": 0.3, "unit": "µM"}]}]}
